How the values were obtained:
Format in all cases: cell-based
[1] = test system: KG-1, ME-1, MOLM-13 and MOLM-14; assay: Synergy of CPX-351 with FLT-3 inhibitor, EOBA algorithm; details: CPX-351 precedes FLT-3 inhibitor or simultaneous; certain combinations
GDM-1 cells = assay: Synergy of CPX-351 with FLT-3 inhibitor, Chou-Talalay algorithm; details: three protocols
MOLM-14 cells = assay: as above

SMILES: CC(C)(C)c1cc(NC(=O)Nc2ccc(-c3cn4c(n3)sc3cc(OCCN5CCOCC5)ccc34)cc2)no1 [quizartinib]
- synergy with CPX-351 (EOBA) [1]: high synergy
- synergy with CPX-351 (combination index), difference between protocols (GDM-1 cells): not significantly different
- synergy with CPX-351 (combination index) (MOLM-14 cells; CPX-351 concomitantly with or before FLT-3 inhibitor): high number of wells that show synergy
- synergy with CPX-351 (combination index) (MOLM-14 cells; FLT-3 inhibitor prior to CPX-351): more antagonistic results

— patent publication US10927418B2, “Assays and methods for selecting a treatment regimen for a subject with leukemia” (CELATOR PHARMACEUTICALS, INC., priority 2015, dated 2021)
